Measured values published in ChEMBL document CHEMBL4311936, “Synthesis and structure-activity relationship studies of IgG-binding peptides focused on the C-terminal histidine residue” (Medchemcomm, 2019).

What was measured:
[1] = Binding affinity to IgG (unknown origin) assessed as dissociation constant; design: species or system Homo sapiens
Homo sapiens = species on record: Homo sapiens; experiment: Binding affinity to IgG (unknown origin) assessed as dissociation rate constant

Row | Compound | Kd [1] [nM] | Kdiss (Homo sapiens) [s⁻¹]
1 | CC(=O)N[C@@H](CC(=O)O)C(=O)N[C@H]1CSSC[C@@H](C(=O)N[C@H](C(=O)N[C@@H](Cc2ccccc2)C(=O)N[C@@H](Cc2cnc[nH]2)C(N)=O)[C@@H](C)O)NC(=O)[C@H](Cc2c[nH]c3ccccc23)NC(=O)[C@H](C(C)C)NC(=O)[C@H](CC(C)C)NC(=O)[C@H](CCC(=O)O)NC(=O)CNC(=O)[C@H](CCCCN)NC(=O)[C@H](Cc2cnc[nH]2)NC(=O)[C@H](Cc2ccc(O)cc2)NC(=O)[C@H](C)NC1=O | 267 | 0.198
2 | CC(=O)N[C@@H](CC(=O)O)C(=O)N[C@H]1CSSC[C@@H](C(=O)N[C@H](C(=O)N[C@@H](Cc2ccccc2)C(=O)N[C@@H](Cc2cnc[nH]2)C(N)=O)[C@@H](C)O)NC(=O)[C@H](Cc2c[nH]c3ccccc23)NC(=O)[C@H](C(C)C)NC(=O)[C@H](CC(C)C)NC(=O)[C@H](CCC(=O)O)NC(=O)CNC(=O)[C@H](CC(C)C)NC(=O)[C@H](Cc2cnc[nH]2)NC(=O)[C@H](Cc2ccc(O)cc2)NC(=O)[C@H](C)NC1=O | 8.19 | 0.0116
